Test results published in patent publication US20030206891A1, “Rapamycin-based biological regulation” (ARIAD Gene Therapeutics, Inc., priority 1995, published 2003).

Amino acid sequences for entries named in this document (tags omitted).
UniProt P62942, whole entry: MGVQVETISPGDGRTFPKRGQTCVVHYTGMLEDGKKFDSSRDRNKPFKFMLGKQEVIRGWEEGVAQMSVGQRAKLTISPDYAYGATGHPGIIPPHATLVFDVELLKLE

Target: T1, FKBP (Homo sapiens, UniProt P62942)
T1 construct: made in house
Experiment: Competitive fluorescence polarization (FP) assay of binding to FKBP with fluoresceinated FK506 probe AP1491
Conditions: for fold loss in affinity (=IC50/IC50 of rapamycin): C24 oxime experiment

[1] = rapamycin C24 oximes, competitive FP vs AP1491 probe, recombinant FKBP

Substance | fold loss in affinity (=IC50/IC50 of rapamycin) | IC50 [1] [µM] | IC50 (C7 rapalog experiment, competitive FP) [µM] | IC50 (controls in the C24 oxime experiment, competitive FP) [µM]
Rapamycin (E and Z)-24-(O-benzyloxime) [AP1682] | >3000 | > 30 | – | –
Rapamycin (E and Z)-24-(O-ethyloxime) [AP1689] | 355 | 3.55 | – | –
Rapamycin (E and Z)-24-(O-isobutyloxime) [AP1685] | 1000 | 10 | – | –
Rapamycin (E and Z)-24-(O-isobutyloxime) [AP1684] | >3000 | > 30 | – | –
Rapamycin (E and Z)-24-(O-benzyloxime) [AP1683] | 346 | 3.46 | – | –

The next lines start with the values.

fold loss in affinity (=IC50/IC50 of rapamycin) | IC50 [1] [µM] | IC50 (C7 rapalog experiment, competitive FP) [µM] | IC50 (controls in the C24 oxime experiment, competitive FP) [µM] | Substance
– | – | 0.162 | 0.186 | C14-desoxo-rapamycin [reference compound]
405 | 3.2 | – | – | Rapamycin (E and Z)-24-(O-methyloxime) [AP1731]
203 | 1.6 | – | – | Rapamycin (E and Z)-24-(O-methyloxime) [AP1732]
